Results from patent US20070054899A1 (priority 2003, published 2007).

By UniProt entry, the sequences of proteins in these tests, tags left out. Where a name states a change or a piece, a line headed by the entry shows the natural chain unless it says otherwise.
UniProt O46512: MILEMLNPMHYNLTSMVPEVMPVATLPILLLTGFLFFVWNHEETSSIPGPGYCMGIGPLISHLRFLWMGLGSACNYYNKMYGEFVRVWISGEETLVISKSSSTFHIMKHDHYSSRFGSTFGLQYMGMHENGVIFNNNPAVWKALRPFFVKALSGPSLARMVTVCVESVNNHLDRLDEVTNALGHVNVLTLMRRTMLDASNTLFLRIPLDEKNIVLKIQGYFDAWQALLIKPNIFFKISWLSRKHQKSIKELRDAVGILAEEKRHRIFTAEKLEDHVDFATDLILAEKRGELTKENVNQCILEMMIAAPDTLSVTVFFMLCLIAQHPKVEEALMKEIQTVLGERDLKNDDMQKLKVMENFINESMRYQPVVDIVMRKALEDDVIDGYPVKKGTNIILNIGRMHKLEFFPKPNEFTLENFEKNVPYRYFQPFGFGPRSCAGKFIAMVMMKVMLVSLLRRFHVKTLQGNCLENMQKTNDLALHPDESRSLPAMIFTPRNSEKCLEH

Molecular target: aromatase (e) (UniProt O46512)
Type: biochemical
Conditions: read-out: Activity In vitro IC50(nM), (e)
Procedure: The IC50, concentrations inhibiting 50% of the activity of the enzyme, were determined using microsomes from the human placenta as source of the enzyme according to the tritiated water method described by PURBA et al (1990).

Work on N#Cc1ccc(C2CCCc3cncn32)cc1 (stereo not shown) [(s)-Fadrozole, reference compound] yielded an IC50 of 260 nM.
